This assay addresses T1, FAAH (Mus musculus, UniProt O08914).
T1 construct: with FP-Rh in brain and heart membrane proteome; from tissue; host or cells: brain and heart membrane proteome
Briefly: Activity based protein profiling (proteome-wide selectivity screening, FP-Rh), FAAH. Format: biochemical. The settings on record: Table 4.

Sequences of proteins named here, by UniProt entry; tags and fusion partners are left off.
UniProt O08914, whole entry: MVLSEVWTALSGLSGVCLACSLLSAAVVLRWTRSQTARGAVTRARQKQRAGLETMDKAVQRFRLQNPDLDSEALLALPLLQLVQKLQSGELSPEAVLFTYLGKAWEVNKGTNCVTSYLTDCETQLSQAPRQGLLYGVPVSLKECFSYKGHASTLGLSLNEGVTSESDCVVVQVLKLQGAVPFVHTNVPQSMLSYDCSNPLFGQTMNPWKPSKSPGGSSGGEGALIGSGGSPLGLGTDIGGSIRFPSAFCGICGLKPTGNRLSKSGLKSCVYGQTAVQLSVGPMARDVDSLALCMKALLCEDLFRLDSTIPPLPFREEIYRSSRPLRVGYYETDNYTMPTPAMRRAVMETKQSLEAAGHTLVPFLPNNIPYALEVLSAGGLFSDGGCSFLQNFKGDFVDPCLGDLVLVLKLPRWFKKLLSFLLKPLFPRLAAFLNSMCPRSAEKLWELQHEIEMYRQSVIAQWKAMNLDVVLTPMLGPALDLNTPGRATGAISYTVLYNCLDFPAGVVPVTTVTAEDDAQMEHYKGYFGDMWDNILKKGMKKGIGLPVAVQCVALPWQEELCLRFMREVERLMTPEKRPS

One may read the IC50 as the concentration that gives 50% inhibition. Low values mean inhibition by little substance, high ones a need for much substance.

The compound `O=C(CCCCCCc1ccccc1)c1ncc(-c2ccccn2)o1` [compound 2, reference compound] returned an IC50 of 2 nM.

For the origin of these results see US8987312B2, “Alpha-keto heterocycles as FAAH inhibitors” (The Scripps Research Institute, priority 2008, dated 2015).
